Laboratory results reported in paper PMC9937529, “Mechanism of activation and biased signaling in complement receptor C5aR1” (Cell Research, 2023).

Assays:
Assay in all cases: cAMP inhibition assay (GloSensor)
Assay type in all cases: cell-based
Details in all cases: HEK293, 2.5 μM forskolin, mean±SEM, n=3
C5aR1 D2827.35A = target: T1, C5aR1 D2827.35A (Homo sapiens, UniProt P21730, D282A)
T1 construct: expressed in transfected cells; host or cells: HEK293
T1 sequence (P21730 1-350 D282A): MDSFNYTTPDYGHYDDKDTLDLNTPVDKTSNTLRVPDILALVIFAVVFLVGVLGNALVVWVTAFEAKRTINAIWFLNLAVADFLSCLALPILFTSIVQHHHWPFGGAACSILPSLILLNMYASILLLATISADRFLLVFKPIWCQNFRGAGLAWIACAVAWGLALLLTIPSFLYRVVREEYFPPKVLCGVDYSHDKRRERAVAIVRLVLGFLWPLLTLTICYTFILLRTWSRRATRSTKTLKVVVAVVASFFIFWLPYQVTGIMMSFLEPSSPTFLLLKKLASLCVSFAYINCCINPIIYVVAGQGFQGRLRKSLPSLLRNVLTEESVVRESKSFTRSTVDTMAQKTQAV
Method: (§1) The cDNA sequences of wild-type C5aR1 were cloned into the expression vector pcDNA3.1(+) with a HA signal sequence followed by a Flag tag at the N-terminus. Mutants used in our study were generated by using the Q5 site-Directed Mutagenesis kit (NEB). All the constructs were verified by sanger sequencing. The constructs were transiently expressed in HEK293 cells using PEI transfection reagent (YEASEN, 40816ES02) according to the manufacturer’s instruction. Cells were harvested 48 h post transfection. Cell surface expression levels of receptors were measured by enzyme-linked immunosorbent assay (ELISA).
(§2) To measure cAMP inhibition effects on the forskolin-induced cAMP accumulation of C5aR1, the GloSensor cAMP assay (Promega) was performed as described in the previous study.[59] Briefly, Flag-tagged wild-type human C5aR1 was co-expressed with GloSensor plasmid in HEK293 cells in 6-well culture plates. After at least 24 h, transfected cells were harvested and suspended in assay buffer Hank’s Balanced Salt Solution (HBSS) containing 10 mM HEPES, pH 7.4, with an additional 3% v/v dilution of the D-Luciferin-Potassium Salt (YEASEN, 40902ES01). The ligands used in this study were dissolved in H2O to a stock concentration of 10 mM and followed by serial dilution using HBSS solution immediately before ligand stimulation. After incubation at 37 °C for 2 h, cells were stimulated by ligand (diluted in assay buffer containing 2.5 μM forskolin) for 30 min at room temperature. […] Finally, the luminescence signals were counted on the Synergy H1 microplate reader (BioTek). Each measurement was repeated in at least three independent experiments, each in triplicate. Data were processed using the nonlinear regression (curve fit) dose-response function in GraphPad Prism 7 to calculate the values of Emax and EC50.

C5aR1 S1714.60A = target: T2, C5aR1 S1714.60A (Homo sapiens, UniProt P21730, S171A)
T2 construct: expressed in transfected cells; host or cells: HEK293
T2 sequence (P21730 1-350 S171A): T1 sequence (P21730 1-350 D282A) with S171A, A282D
Method: as §1, §2

C5aR1 E1995.35A = target: T3, C5aR1 E1995.35A (Homo sapiens, UniProt P21730, E199A)
T3 construct: expressed in transfected cells; host or cells: HEK293
T3 sequence (P21730 1-350 E199A): T1 sequence (P21730 1-350 D282A) with E199A, A282D
Method: as §1, §2

C5aR1 Y2586.51A = target: T4, C5aR1 Y2586.51A (Homo sapiens, UniProt P21730, Y258A)
T4 construct: expressed in transfected cells; host or cells: HEK293
T4 sequence (P21730 1-350 Y258A): T1 sequence (P21730 1-350 D282A) with Y258A, A282D
Method: as §1, §2

C5aR1 D191ECL2A = target: T5, C5aR1 D191ECL2A (Homo sapiens, UniProt P21730, D191A)
T5 construct: expressed in transfected cells; host or cells: HEK293
T5 sequence (P21730 1-350 D191A): T1 sequence (P21730 1-350 D282A) with D191A, A282D
Method: as §1, §2

B1: C5a: 74-amino-acid complement fragment, endogenous agonist; recombinant human C5a, free cysteine replaced by arginine (protein)
chain: TLQKKIEEIAAKYKHSVVKKCCYDGARVNNDETCEQRAARISLGPRCIKAFTECCVVASQLRANISHKDMQLGR
modifications: three intramolecular disulfides; non-glycosylated (E. coli); Trx-His6 tag removed with TEV
B1 showed an EC50 (C5aR1 D2827.35A) of 12.9 ± 2.54 nM, an EC50 (C5aR1 S1714.60A) of 4.03 ± 1.33 nM and an EC50 (C5aR1 E1995.35A) of 3.24 ± 0.71 nM. It also gave an EC50 (C5aR1 Y2586.51A) of 7.86 ± 1.53 nM and an EC50 (C5aR1 D191ECL2A) of 8.14 ± 1.47 nM.

Where a chain is given by its changes, count along the chain named.
